## Apparent affinities of Ab-14 variants for a coronavirus HR2 peptide

Data: MIT Lincoln Laboratory AlphaSeq set, Engelhart et al. 2022, doi:10.1038/s41597-022-01779-4, as distributed in FLAb.

Target: peptide PDVDLGDISGINAS, taken from heptad repeat 2 (HR2) of SARS-CoV-2 spike.

Parent scFv Ab-14: VH joined to VL by a (GGGGS)3 linker. Changes lie in the heavy chain CDRs alone.
VH: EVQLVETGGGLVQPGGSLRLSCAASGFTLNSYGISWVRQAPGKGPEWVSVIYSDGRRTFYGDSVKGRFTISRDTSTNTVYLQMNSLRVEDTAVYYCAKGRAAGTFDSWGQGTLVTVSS
VL: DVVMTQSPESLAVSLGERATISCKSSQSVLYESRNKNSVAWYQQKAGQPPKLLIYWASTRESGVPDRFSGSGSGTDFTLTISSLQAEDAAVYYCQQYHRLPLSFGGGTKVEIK

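Phage display of a naive human antibody library on the peptide gave the parent. Variants in AAYL49 differ from the parent at up to three CDR positions; double and triple changes were sampled at random. Affinity was read by AlphaSeq, a pooled yeast mating assay with surface-displayed partners. Binding brings cells together so that they mate, and sequencing counts the barcode pairs among the diploids. The ratio of observed to expected reads was calibrated, replicate by replicate, on BCL2-family standards whose Kd was known from biolayer interferometry. Mating was done three times.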

Each variant is given by its three heavy chain CDRs, as the data file delimits them; those of the parent are GFTLNSYGIS, VIYSDGRRTFYGDSVK, GRAAGTFDS. Affinities are written as log10 Kd with Kd in nM; a lower number is a better binder. "ND" means that the variant was in the library but no mating with the target was seen in that replicate; the authors take this as a sign of poor binding, and no number exists. Background: pairings of library AAYL49 with three empty control strains gave a value in 15% of cases (median 4.06, 5th percentile 2.83). Values in that range, when seen in few replicates, are hard to tell from nonspecific mating. Also given: how often the same scFv was detected with the empty control strains, with their mean in brackets.

| CDR-H1 | CDR-H2 | CDR-H3 | log10 Kd, replicates | empty controls |
|---|---|---|---|---|
| GFTLVSYGIS | VIYSDGRQTFYGDYVK | GRAAGTFDS | ND / ND / ND | 0 of 9 |
| GFTLNLYGIS | VIYSDGRFTFYGDSVK | GRAAGVFDS | ND / ND / ND | 4 of 9 (3.30) |
| GFTLNSYGIS | VIYADGRRTFVGDSVK | FRAAGTFDS | ND / ND / ND | 0 of 9 |
| GFTLNSYGIS | VWYSDGRPTDYGDSVK | GRAAGTFDS | ND / ND / ND | 0 of 9 |
| GHTRNSYGIS | VMYSDGRRTFYGDSVK | GRAAGTFDS | ND / ND / ND | 1 of 9 (4.20) |
| GFTLNSYGIE | VIYSDGRRTFYHDSVK | GRAAGTFDS | ND / ND / ND | 0 of 9 |
| VFTLNSYGIS | VIYSDGRRTEYGDSVK | GRCAGTFDS | 3.17 / ND / 2.93 | 0 of 9 |
| GFTLNSYGIS | VIYSYGRVTFYGDSVK | GRAAGTFDI | ND / ND / ND | 1 of 9 (3.27) |
| GFDLNSYGIS | VILSDGRRTFYGDSTK | GRAAGTFDS | ND / ND / ND | 3 of 9 (3.99) |
| GVTLNMYGIS | VIYSDGRRTFYGDSVK | GRAAGTFSS | ND / ND / ND | 1 of 9 (2.39) |
| GFTLNSYGLS | VIYSDGRRSFYGDSVK | GRAAGTFDL | ND / ND / ND | 1 of 9 (4.86) |
| GFTLNSYGIS | VIYSDGRSTFYGDSVK | GNAAGTFDS | ND / 2.05 / 2.29 | 0 of 9 |
| GFTLNSYGIS | VIYSDGCRTFYGDSVV | RRAAGTFDS | 4.35 / 3.64 / 4.65 | 0 of 9 |
| GFTLRSYGIS | VIYFDGRRTFYGDSVK | GRALGTFDS | ND / 4.66 / 4.66 | 4 of 9 (4.89) |
| GFTLNSYGIS | MIYSDGRRTFYGDSVK | GRAAGTFLS | ND / ND / ND | 2 of 9 (3.05) |
| GFTLNSYGIS | VIYSRGRRLFYGDSVK | GRMAGTFDS | ND / ND / ND | 2 of 9 (3.13) |
| GATLNSWNIS | VIYSDGRRTFYGDSVK | GRAAGTFDS | 5.26 / ND / ND | 3 of 9 (3.83) |
| GFTLNSYGIS | VIYSDGRRTFYGDCVK | GRAAGTFDS | 3.04 / 2.40 / 3.51 | 2 of 9 (5.24) |
| GFTLNSYHIS | VIYSDGRRTDYGDSVK | GRAAGTFGS | ND / 2.99 / ND | 1 of 9 (2.24) |
| GFTLNSYGIW | VIYSDGRRTFYGDWVD | GRAAGTFDS | 3.97 / ND / 3.81 | 2 of 9 (3.56) |
| GFTLNSYGIN | VIYSDGRRTFYGDSVH | GRALGTFDS | 5.07 / ND / ND | 2 of 9 (4.41) |
| GITLNSYGIS | VIYSDGRRTFYGDSVD | GRAAGTFDS | 1.80 / 1.71 / 1.96 | 3 of 9 (3.85) |
| SFTLNSYGIS | VTYSDGRRTFYGDSVK | GRAAGTFDS | ND / ND / 2.41 | 1 of 9 (2.42) |
| GFTLNSYGIS | VIYSDGRRTFEGDSVK | GAMAGTFDS | 2.11 / 2.45 / 3.62 | 0 of 9 |
| NFTLNSYGIS | VIYMDGQRTFYGDSVK | GRAAGTFDS | ND / ND / ND | 0 of 9 |
| GFTLNLYGIS | VIYSDGIRKFYGDSVK | GRAAGTFDS | 1.03 / 1.09 / 1.15 | 2 of 9 (3.77) |
| GFTLNDYGIS | VIYSDGRRTQYIDSVK | GRAAGTFDS | -0.55 / 0.08 / -0.32 | 1 of 9 (2.27) |
| GFTLMSWGIS | VIYSDGRRPFYGDSVK | GRAAGTFDS | 4.42 / ND / 5.72 | 3 of 9 (3.39) |
| GFTLNSYGVS | VIYWDGRRTFLGDSVK | GRAAGTFDS | 5.76 / 4.65 / 5.65 | 2 of 9 (4.58) |
| GFTLNSYGIS | FRYSDGRRTFLGDSVK | GRAAGTFDS | ND / ND / ND | 1 of 9 (3.56) |
| IFTLNSYNAS | VIYSDGRRTFYGDSVK | GRAAGTFDS | ND / ND / ND | 1 of 9 (3.93) |
| GFWLNSYGIS | VIYSDGRRTIYGSSVK | GRAAGTFDS | 5.20 / ND / 4.60 | 1 of 9 (3.21) |
| GTTLNSYGIS | VIISDGRRTFYGDSVK | FRAAGTFDS | ND / 4.73 / ND | 3 of 9 (3.33) |
| GFTLNSYGIS | VIYGDGWRTFYGDSVK | GRVAGTFDS | 2.41 / 2.71 / 2.28 | 2 of 9 (3.49) |
| GFTLNRYGIS | VIYSAGRRTFYGDSVK | FRAAGTFDS | ND / ND / ND | 0 of 9 |
| GFTLNSYGIS | VIYSDGRETFYGDSVK | GRAAGCFDF | ND / ND / ND | 1 of 9 (2.87) |
| GFTLNSVGIS | VIYEDGRRTFYGDSVK | GRAAGTFDS | ND / ND / ND | 1 of 9 (3.51) |
| GFTLNSYGIS | VCGSMGRRTFYGDSVK | GRAAGTFDS | ND / ND / ND | 0 of 9 |
| GFTLNSYGES | VIYSDGRRTFYNESVK | GRAAGTFDS | 4.64 / ND / 3.47 | 5 of 9 (4.11) |
| GFTHGSYGIS | VIYSDGRRTFYGDSVK | GSAAGTFDS | ND / 3.84 / 3.94 | 0 of 9 |
| GFTLNSYGIF | VLYSDGRRQFYGDSVK | GRAAGTFDS | ND / ND / ND | 1 of 9 (3.94) |
| GFTVNSYGIS | VIYSQGRRTFYGDSVK | GRAAGTFVS | ND / 3.14 / ND | 2 of 9 (4.47) |
| GFTLNSYGFS | TIYSDGRRTFYGDSVK | GRAAGTFDR | ND / ND / ND | 0 of 9 |
| GFTLNSIGIS | VIYSDGRHTMYGDSVK | GRAAGTFDS | ND / ND / ND | 0 of 9 |
| GFALNSYGIS | VISSDGRRTFYGDSVD | GRAAGTFDS | ND / 4.10 / 4.28 | 5 of 9 (4.42) |
| GFTLNSYGIS | VIYSDGCRTFYGDSVK | GRAAGTFDS | 1.54 / 1.67 / 1.69 | 3 of 9 (4.46) |
| GFTLNSYGIS | VIYSDGRRQFYGDSVK | GQYAGTFDS | 0.93 / 1.04 / 0.94 | 2 of 9 (2.92) |
| GFLLNSYGIS | VIYPDGRKTFYGDSVK | GRAAGTFDS | ND / ND / 1.81 | 0 of 9 |
| GFTLNSYGIH | VIYSDGYRTFYGDSVK | GRAAGTFDS | 1.61 / 1.75 / 2.23 | 2 of 9 (3.91) |

Excerpt, the final 7 entries:

| CDR-H1 | CDR-H2 | CDR-H3 | log10 Kd, replicates | empty controls |
|---|---|---|---|---|
| GFTLNSYGFS | TIYSDGRRTFYGDSVK | GRAAGTFDR | ND / ND / ND | 0 of 9 |
| GFTLNSIGIS | VIYSDGRHTMYGDSVK | GRAAGTFDS | ND / ND / ND | 0 of 9 |
| GFALNSYGIS | VISSDGRRTFYGDSVD | GRAAGTFDS | ND / 4.10 / 4.28 | 5 of 9 (4.42) |
| GFTLNSYGIS | VIYSDGCRTFYGDSVK | GRAAGTFDS | 1.54 / 1.67 / 1.69 | 3 of 9 (4.46) |
| GFTLNSYGIS | VIYSDGRRQFYGDSVK | GQYAGTFDS | 0.93 / 1.04 / 0.94 | 2 of 9 (2.92) |
| GFLLNSYGIS | VIYPDGRKTFYGDSVK | GRAAGTFDS | ND / ND / 1.81 | 0 of 9 |
| GFTLNSYGIH | VIYSDGYRTFYGDSVK | GRAAGTFDS | 1.61 / 1.75 / 2.23 | 2 of 9 (3.91) |